Values quoted from earlier work in patent publication US9364565B2, “Medical device with coating for capturing genetically-altered cells and methods of using same” (OrbusNeich Medical, Inc., priority 2000, dated 2016).

Sequences of proteins named here, by UniProt entry; tags and fusion partners are left off. Residues count along the entry.
UniProt P35968, 20-1356: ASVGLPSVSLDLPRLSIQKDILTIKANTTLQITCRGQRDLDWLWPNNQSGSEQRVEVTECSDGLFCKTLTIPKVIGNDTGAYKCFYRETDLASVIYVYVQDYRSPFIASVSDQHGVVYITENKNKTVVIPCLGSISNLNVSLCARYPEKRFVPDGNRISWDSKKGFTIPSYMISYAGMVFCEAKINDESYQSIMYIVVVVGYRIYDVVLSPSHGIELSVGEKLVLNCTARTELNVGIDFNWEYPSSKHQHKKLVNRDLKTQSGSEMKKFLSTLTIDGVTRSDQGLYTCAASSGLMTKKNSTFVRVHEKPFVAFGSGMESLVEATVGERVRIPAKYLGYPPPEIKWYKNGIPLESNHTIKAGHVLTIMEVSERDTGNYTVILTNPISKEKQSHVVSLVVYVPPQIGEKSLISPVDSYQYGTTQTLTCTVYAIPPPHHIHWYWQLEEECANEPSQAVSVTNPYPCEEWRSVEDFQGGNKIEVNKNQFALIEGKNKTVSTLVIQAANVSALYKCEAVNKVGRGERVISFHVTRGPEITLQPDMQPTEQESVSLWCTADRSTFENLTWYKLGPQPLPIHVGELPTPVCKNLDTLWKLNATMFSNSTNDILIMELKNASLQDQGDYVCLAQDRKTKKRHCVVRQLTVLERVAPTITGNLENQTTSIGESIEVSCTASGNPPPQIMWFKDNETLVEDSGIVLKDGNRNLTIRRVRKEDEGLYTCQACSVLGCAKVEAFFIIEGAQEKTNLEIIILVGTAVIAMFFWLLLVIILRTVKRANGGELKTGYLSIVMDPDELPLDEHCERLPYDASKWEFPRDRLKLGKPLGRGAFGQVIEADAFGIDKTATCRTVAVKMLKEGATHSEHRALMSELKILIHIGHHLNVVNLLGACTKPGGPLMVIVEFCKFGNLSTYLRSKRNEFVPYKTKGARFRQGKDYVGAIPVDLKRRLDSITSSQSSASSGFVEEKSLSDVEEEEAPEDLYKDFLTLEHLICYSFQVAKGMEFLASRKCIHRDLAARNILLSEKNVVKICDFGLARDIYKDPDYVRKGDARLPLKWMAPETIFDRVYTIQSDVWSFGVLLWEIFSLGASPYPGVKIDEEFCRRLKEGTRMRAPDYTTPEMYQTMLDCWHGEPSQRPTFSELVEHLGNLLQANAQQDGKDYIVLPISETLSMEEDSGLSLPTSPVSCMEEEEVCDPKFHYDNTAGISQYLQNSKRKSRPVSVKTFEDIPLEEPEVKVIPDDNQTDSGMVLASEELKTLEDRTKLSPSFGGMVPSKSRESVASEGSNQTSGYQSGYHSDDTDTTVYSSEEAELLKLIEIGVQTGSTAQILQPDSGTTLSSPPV

Target: VEGFR-2 (Homo sapiens, UniProt P35968)

- binding to VEGFR-2: bind to VEGFR-2
SMILES: Clc1ccc(Nc2nnc(Cc3ccncc3)c3ccccc23)cc1 [PTK787/ZK222584]
